ChEMBL document CHEMBL1817543, “New nitric oxide or hydrogen sulfide releasing aspirins” (J Med Chem, 2011)

Tests used:
[1] = system: Aorta; test: Vasodilatory activity at endothelium denuded Wistar rat thoracic aorta assessed as relaxation of phenylephrine-induced contraction preincubated for 30 mins before phenylephrine challenge in presence of 1 uM soluble guanylate cyclase inhibitor H-[1,2,4]Oxadiazolo[4,3-a]quinoxalin-1-one
[2] = system: Aorta; test: Vasodilatory activity at endothelium denuded Wistar rat thoracic aorta assessed as relaxation of phenylephrine-induced contraction

`O=[N+]([O-])OCC(CO)O[N+](=O)[O-]` (configuration not stated) gave a pEC50 [1] of under 4.00 and a pEC50 [2] of 5.77.

pEC50: −log10 of the molar value.
